Measured values from patent US9301951B2 (Ardelyx, Inc., priority 2010, dated 2016).

Chains of the proteins cited; added tags and fusions are not shown.
UniProt Q9JJ09, whole entry: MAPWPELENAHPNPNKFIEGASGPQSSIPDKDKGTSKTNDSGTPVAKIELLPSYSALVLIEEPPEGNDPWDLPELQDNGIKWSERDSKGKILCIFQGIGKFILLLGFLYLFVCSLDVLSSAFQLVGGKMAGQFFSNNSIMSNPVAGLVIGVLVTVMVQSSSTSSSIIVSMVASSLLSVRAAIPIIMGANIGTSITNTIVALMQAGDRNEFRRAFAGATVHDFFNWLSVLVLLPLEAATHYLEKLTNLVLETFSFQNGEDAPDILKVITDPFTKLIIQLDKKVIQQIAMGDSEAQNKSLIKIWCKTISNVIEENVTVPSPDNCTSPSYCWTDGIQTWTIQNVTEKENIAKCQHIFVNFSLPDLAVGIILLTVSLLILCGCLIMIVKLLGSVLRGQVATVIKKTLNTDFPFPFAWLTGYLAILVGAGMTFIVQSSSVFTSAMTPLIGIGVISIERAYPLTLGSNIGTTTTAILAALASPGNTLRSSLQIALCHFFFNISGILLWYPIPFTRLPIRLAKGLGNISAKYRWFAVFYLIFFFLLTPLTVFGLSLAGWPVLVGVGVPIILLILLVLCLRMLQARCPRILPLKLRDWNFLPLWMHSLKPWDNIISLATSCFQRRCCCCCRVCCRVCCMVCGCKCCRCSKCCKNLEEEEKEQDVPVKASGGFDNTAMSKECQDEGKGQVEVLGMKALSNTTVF

These molecules were tested against rat NaP2b (SLC34A2) (Rattus norvegicus, UniProt Q9JJ09) (assay: Inhibition of NaP2b-mediated Pi (33P) uptake in transfected HEK293 cells, rat NaP2b). Details: HEK293 cells transfected with rat NaP2b, 100 uM phosphate, 0.1 nM to 30 uM.
Type: cell-based

Row | Structure (SMILES) | pIC50 range for rat Nap2b
1 | O=C(NCc1cccc(C(F)(F)F)c1)c1ccnc(-c2cc(N3CCCCC3)ccc2NC(=O)c2cccc(CSc3cccc(C(=O)N4CCC(C(=O)O)CC4)c3)c2)c1 | 5.1-6.0
2 | O=C(NCCN1CCOCC1)c1cccc(SCc2cccc(C(=O)Nc3ccc(N4CCCCC4)cc3-c3cc(C(=O)NCc4cccc(C(F)(F)F)c4)ccn3)c2)c1 | 5.1-6.0
3 | CN(CCN1CCOCC1)C(=O)c1cccc(C(=O)Nc2ccc(N3CCCCC3)cc2-c2cc(C(F)(F)CCc3ccccc3)ccn2)c1 | 4.5-5
